According to patent publication US12172975B2, “1H-indazole carboxamides as receptor-interacting protein kinase 1 inhibitors (RIPK1)” (BRISTOL-MYERS SQUIBB COMPANY, priority 2018, dated 2024):
Where two headings read alike, the source gives them in different places.

Tested on: MLKL phosphorylation in HT29-L23 human colorectal adenocarcinoma cells
Assay: MLKL Phosphorylation High-Content Assay
Format: cell-based
Settings: necroptosis induced with TNFα, SMAC mimetic and Z-VAD, 6 h, read-out: pMLKL (IC50)
Experimental: MLKL Phosphorylation High-Content Assay
HT29-L23 human colorectal adenocarcinoma cells were maintained in RPMI 1640 medium containing 10% heat-inactivated FBS, 1% Penicillin-Streptomycin and 10 mM HEPES. Cells were seeded at 2,000 cells/well in 384 well tissue culture-treated microplates (Greiner #781090-3B) and incubated at 37° C. (5% CO2/95% O2) for 2 d. […] (5% CO2/95% O2). Necroptopsis was induced using a mixture of human TNFα (35 ng/mL) (Peprotech #300-01A), SMAC mimetic (from US 2015/0322111 A1) (700 nM) and Z-VAD ([…]) (BD pharmingen #51-6936). Following 6 h incubation at 37° C. (5% CO2/95% O2), the cells were fixed with 4% formaldehyde (ACROS 11969-0010) for 15 min at rt, then permeabilized with phosphate buffered saline (PBS) containing 0.2% Triton-X-100 for 10 min. MLKL phosphorylation was detected using anti-MLKL (phospho S358) antibody (Abeam #ab 187091) (1:1000 dilution in Blocking Buffer [PBS supplemented with 0.1% BSA]) with ON incubation at 4° C. After washing three times in PBS, goat anti-rabbit Alexa-488 (1:1000 dilution) (Life Technologies, A11008) and Hoechst 33342 (Life Technologies, H3570) (1:2000 dilution) in Blocking Buffer were added for 1 h at rt.
Following another three cycles of washes in PBS, the microplates were sealed, and cellular images were acquired in the Cellomics ArrayScan VTI high-content imager equipped with an X1 camera. Fluorescent images were taken using a 10× objective and the 386-23 BGRFRN_BGRFRN and 485-20 BGRFRN_BGRFRN filter sets, for nuclei and MLKL phosphorylation, respectively. The image sets were analyzed using the Compartmental Analysis Bioapplication software (Cellomics). The level of MLKL phosphorylation was quantified as MEAN_CircRingAvglntenRatio. The maximal inhibitory response was defined by the activity induced by Neels (CAS #: 852391-15-2, 6.25 μM). […] The data were fitted using the 4-parameter logistic equation to calculate the IC50 and Ymax values.

Structure (SMILES)	IC50 [nM]	IC50 (Homo sapiens) [nM]
CNC(=O)c1n[nH]c2cc(-c3cnc(OC)c(C(=O)NCc4ccc(F)cc4OC4CCOCC4)c3)ccc12 [Example 50, 6-[5-({[4-fluoro-2-(oxan-4-yl-oxy)phenyl]methyl}carbam-oyl)-6-methoxypyridin-3-yl]-N-methyl-1H-indazole-3-carboxamide]	7	–
[2H]C([2H])([2H])NC(=O)c1n[nH]c2cc(-c3cnc(OC)c(C(=O)NC(C)c4cccc(OC(F)(F)F)c4)c3)ccc12 (stereo not drawn) [Example 151, 6-[6-methoxy-5-({1-[3-(tri-fluoromethoxy)phenyl]ethyl}-carbamoyl)pyridin-3-yl]-N-(deutero)methyl-1H-indazole-3-carboxamide]	–	24
CNC(=O)c1n[nH]c2cc(-c3cnc(OC)c(C(=O)NCc4ccccc4OCC4CCCC4)c3)ccc12 [Example 110, 6-[5-({[2-(cyclopentylmeth-oxy)phenyl]methyl}carbam-oyl)-6-methoxypyridin-3-yl]-N-methyl-1H-indazole-3-carboxamide]	7.3	–
